Structures are written as SMILES. This is a selection; strong and weak results do not stand in their true shares. Calls of active or inactive are those of the source. Rule as the data show it: active = activation above about 50%; inconclusive = mostly about 30% to 49%; inactive = weaker than that.

This test is described as follows: qHTS of IL-2 Activators. Also: 0% is about no effect. The conditions noted are these: IL-2 activation reporter assay, cell-based qHTS; active compounds read high; in transgenic mouse T cells; stimulated with anti-CD3/CD4/CD28 beads. The text has this: The adaptive immune response against any infectious agent begins with the activation of an antigen specific T cell. This relatively rare and inert ("naive") T cell undergoes a massive proliferative expansion and differentiation process to generate sufficient number of potent pathogen-specific effector T cells. The effector T cells fight the infection by making cytokines and helping other cells to become fully armed as well. If any naive T cell has antigen receptors (TCRs) that can be activated by self peptides, then a variety of regulatory mechanisms kick in to prevent this cell from performing to its full potential. These processes collectively constitute the phenomenon of immunological tolerance and their failure leads to autoimmunity. One arm of tolerance involves generation of biochemical negative feedback downstream of the TCR (tuning). This is especially relevant to self antigens present in the body over long periods of time (chronic), which form the bulk of our proteome. The negative feedback serves to tune the TCR signaling, such that the ambient antigenic stimulation is nullified intracellularly. Unfortunately, this critical machinery serves as a target for chronic viral, bacterial and parasitic infections (as well as tumors), which can evade a robust immune response, simply by allowing T cells to tune down their signaling to pathogen or malignancy derived antigens. As such, disrupting the tuning in such cases would allow the tolerant T cell to function again and deliver a robust effector response.
If a therapeutic can restore responsiveness to the tuned down T cell, even for a short time, they could combat the pathogen without any additional immunization. To that end, we have developed a sensitive HTS T cell based assay based on IL-2. This assay will be screened against the Molecular Libraries Small Molecule Repository (MLSMR) to find small molecules that could elicit this response.
NIH Chemical Genomics Center [NCGC]
NIH Molecular Libraries Probe Centers Network [MLPCN]
Assay Submitter (PI): Ron Schwartz, NIAID
4 microL (750 cells/well) of unstimulated transgenic mouse T cells (columns 1-3,5-48) are dispensed into Aurora LoBase, black clear-bottom 1536-well assay plates; column 4 receives an identical concentration of transgenic memory T cells as a non-tolerant control. Compounds are then transferred via Kalypsys pin tool equipped with 1536-pin array (10 nL slotted pins, V&P Scientific, San Diego, CA). Following addition of compound and a 60 minute incubation, 1 microL of bead stimulation solution ((0.04 micron Fluospheres (Life technologies, CA) coated with 10ug/ml each anti-CD3 and anti-CD4 (clones 2C11 and GK1.5, BD Biosciences, CA) and mixed with 1ug/ml anti-CD28 (clone PV-1, BD biosciences, CA)). columns 2-48) is added to stimulate the IL-2 response pathway; media is instead added to column 1 as an unstimulated control, while PMA/ionomycin (Sigma Aldrich, MO) is added to column 3 as a control for IL-2 tolerance bypass. The plates are then incubated at 37 degrees C for 18 hours. EGFP and DsRed signal are then detected using an Acumen eX3 Explorer fluorescent plate cytometer. All cells are dispensed in cell media containing EHAA (Quality Biologicals, MD), RPMI (Quality Biologicals, MD), Glutamine (Life Technologies, CA), Penicillin/Streptomycin (Quality Biologicals, MD), 2-ME (Sigma Aldrich, MO) and 10% FBS (Gemini Bioproducts, CA) .
A general note: Quantitative high-throughput screening tests each substance at several concentrations.
Regarding `Cc1ccc(NCCc2c([N+](=O)[O-])cc([N+](=O)[O-])cc2[N+](=O)[O-])cc1`, the activation is inactive: 0.118%.

`Nc1cccc2c([As](=O)(O)O)cccc12`: the activation is inactive: 3.45%.

As to `CCCOP(=S)(Nc1nc(N)cc(=O)[nH]1)OCCC`, the activation is inactive: 0.0104%.

As for `CCOP(=O)(Nc1cccc2ccccc12)OCC`, the activation is inactive: -3.41%.

With `COc1cc(C2NCCC3(OCCO3)C2(C)C)cc(OC)c1OC` (stereo unspecified), the activation is inactive: -4.95%.

Turning to `O=C(OC1CN2CCC1CC2)c1ccc(Cl)cc1` (stereo unspecified), the activation is inactive: -0.799%.

In the case of `CS(=O)(=O)c1ccc(Cl)c(NC(=O)COC(=O)C(O)(c2ccccc2)c2ccccc2)c1`, the activation is inactive: 0.177%.

`COc1cc(C(=O)NCC2(N3CCOCC3)CCCCC2)cc(Cl)c1OC(C)C`: the activation is inactive: -0.178%.

`O=[As](O)(O)c1cccnc1`: the activation is inactive: -0.417%.

On to `O=[As](O)(c1cccc(O)c1)c1cccc(O)c1`, for which the activation was inactive: -0.0395%.

`Cc1cccc(OCC(=O)OC2CN3CCC2CC3)c1` (stereo unspecified): the activation was inactive: 1.59%.

Turning to `NC(=O)Nc1ccc([As](=O)(O)O)cc1`, the activation is inactive: 0.42%.

With `CN(C(=O)Cc1ccccc1)[C@@H]1CC[C@]2(CCCO2)C[C@H]1N1CCCC1`, the activation is inactive: -0.329%.

For `CCOP1(=S)c2c(C)nn(CCC#N)c2N=C(c2ccc(F)cc2)N1C` (stereo unspecified), the activation is inactive: -1.74%.

`N#CCCN(C(=O)COC(=O)C(O)(c1ccccc1)c1ccccc1)c1ccc(F)cc1`: the activation is inactive: -4.84%.

For `CN(C(=O)Cc1ccc(Cl)c(Cl)c1)[C@H]1CC[C@@]2(CCCO2)C[C@@H]1N1CCCC1`, the activation is inactive: 0.0586%.

On to `CN(C)C(=O)c1cc([N+](=O)[O-])cc2c1-c1c(cc([N+](=O)[O-])cc1[N+](=O)[O-])C2=O`, for which the activation is inactive: -0.483%.

In the case of `O=[N+]([O-])c1ccc2c(c1)nnn2O`, the activation was inactive: -2.17%.

Take `O=P(Nc1nccs1)(c1ccccc1)c1nc2ccccc2s1` (stereo unspecified): the activation was inactive: -0.666%.

Regarding `O=P(Nc1nccs1)(Oc1ccccc1)Oc1ccccc1`, the activation is inactive: 0.635%.

For `CCOP1(=S)c2c(C)nn(CCC#N)c2N=C(c2ccccc2F)N1C` (stereo unspecified), the activation is inactive: -2.39%.

For `CS(=O)(=O)c1cc([N+](=O)[O-])c2no[n+]([O-])c2c1`, the activation was inactive: -0.0549%.

For `O=C(O)COc1ccc([As](=O)(O)O)cc1[N+](=O)[O-]`, the activation is inactive: -0.34%.

Consider `Nc1ccccc1[As](=O)(O)c1ccccc1`, for which the activation is inactive: -1.6%.

As for `Cc1ccc(S(=O)(=O)N(CCCN)CCCc2c(C)nc(N)[nH]c2=O)cc1`, the activation is inactive: 1.55%.

For the molecule `O=P1(Nc2ncccn2)COc2ccccc2OC1`, the activation was inactive: 0.314%.

Source of the values: PubChem BioAssay AID652025 (National Center for Advancing Translational Sciences (NCATS), 2013).
